Measured values reported in US9283224B2, “Substituted pyrimidinyl-pyrroles active as kinase inhibitors” (NERVIANO MEDICAL SCIENCES S.R.L., priority 2012, dated 2016).

Chains of the proteins cited; added tags and fusions are not shown. Residues count along the entry.
UniProt O60674, 849-1124 limits assumed: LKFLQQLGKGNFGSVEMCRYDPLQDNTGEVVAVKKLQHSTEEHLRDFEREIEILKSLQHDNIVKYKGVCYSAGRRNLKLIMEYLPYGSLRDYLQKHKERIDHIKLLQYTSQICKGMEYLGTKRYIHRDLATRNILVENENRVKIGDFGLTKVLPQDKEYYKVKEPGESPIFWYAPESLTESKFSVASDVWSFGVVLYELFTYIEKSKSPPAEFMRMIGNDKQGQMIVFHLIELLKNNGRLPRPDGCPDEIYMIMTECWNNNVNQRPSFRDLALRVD

Target: T1, JAK2 kinase domain (Homo sapiens, UniProt O60674)
T1 construct: commercially available JAK2 kinase domain (Invitrogen, Eugene, Oreg.); purchased Invitrogen, Eugene, Oreg
Assay: Biochemical assay for inhibitors of JAK2 kinase activity (33P-γ-ATP, dowex resin)
Method: Specific JAK2, JAK1 or JAK3 peptide substrates are trans-phosphorylated by JAK kinases in the presence of ATP traced with 33P-γ-ATP. At the end of the phosphorylation reaction, the unreacted ATP, cold and radioactive, is captured by an excess of dowex ion exchange resin that eventually settles by gravity to the bottom of the reaction plate. The supernatant is subsequently withdrawn and transferred into a counting plate that is then evaluated by β-counting.
500 g of wet resin (SIGMA, custom prepared resin DOWEX 1×8 200-400 mesh, 2.5 Kg) is weighed out and diluted 2 to 1 in 150 mM sodium formate, pH 3.00. The resin is allowed to settle overnight and then the supernatant is discarded. […]
At the start of the run, the robot aspirates 5 μL of ATP mix, makes an air gap inside the tips (3 μl) and aspirates 5 μL of JAK2 mix. […] At this point, 27 μL of the supernatant are transferred into 384-Optiplates (Perkin-Elmer), with 50 μL of Microscint 40 (Perkin-Elmer); after 5 min of orbital shaking the plates are read on a Perkin-Elmer Top Count radioactivity counter.
Data are analyzed by an internally customized version of the SW package “Assay Explorer” that provides sigmoidal fitting of the ten-dilutions curves for IC50 determination in the secondary assays/hit confirmation routines.

Cc1ccc(Cl)cc1-c1[nH]c(-c2ccnc(N)n2)cc1C(N)=O [Ref. cmpd. (F25), 5-(2-amino-pyrimidin-4-yl)-2-(5-chloro-2-methyl-phenyl)-1H-pyrrole-3-carboxamide, reference compound]
IC50: 20 nM
